Source: patent US8802688B2, “Substituted acetyl-coa carboxylase inhibitors” (Pfizer Inc., priority 2011, dated 2014)
pIC50: −log10 of the molar value.

By UniProt entry, the sequences of proteins in these tests, tags left out.
UniProt O00763, whole entry V2141I: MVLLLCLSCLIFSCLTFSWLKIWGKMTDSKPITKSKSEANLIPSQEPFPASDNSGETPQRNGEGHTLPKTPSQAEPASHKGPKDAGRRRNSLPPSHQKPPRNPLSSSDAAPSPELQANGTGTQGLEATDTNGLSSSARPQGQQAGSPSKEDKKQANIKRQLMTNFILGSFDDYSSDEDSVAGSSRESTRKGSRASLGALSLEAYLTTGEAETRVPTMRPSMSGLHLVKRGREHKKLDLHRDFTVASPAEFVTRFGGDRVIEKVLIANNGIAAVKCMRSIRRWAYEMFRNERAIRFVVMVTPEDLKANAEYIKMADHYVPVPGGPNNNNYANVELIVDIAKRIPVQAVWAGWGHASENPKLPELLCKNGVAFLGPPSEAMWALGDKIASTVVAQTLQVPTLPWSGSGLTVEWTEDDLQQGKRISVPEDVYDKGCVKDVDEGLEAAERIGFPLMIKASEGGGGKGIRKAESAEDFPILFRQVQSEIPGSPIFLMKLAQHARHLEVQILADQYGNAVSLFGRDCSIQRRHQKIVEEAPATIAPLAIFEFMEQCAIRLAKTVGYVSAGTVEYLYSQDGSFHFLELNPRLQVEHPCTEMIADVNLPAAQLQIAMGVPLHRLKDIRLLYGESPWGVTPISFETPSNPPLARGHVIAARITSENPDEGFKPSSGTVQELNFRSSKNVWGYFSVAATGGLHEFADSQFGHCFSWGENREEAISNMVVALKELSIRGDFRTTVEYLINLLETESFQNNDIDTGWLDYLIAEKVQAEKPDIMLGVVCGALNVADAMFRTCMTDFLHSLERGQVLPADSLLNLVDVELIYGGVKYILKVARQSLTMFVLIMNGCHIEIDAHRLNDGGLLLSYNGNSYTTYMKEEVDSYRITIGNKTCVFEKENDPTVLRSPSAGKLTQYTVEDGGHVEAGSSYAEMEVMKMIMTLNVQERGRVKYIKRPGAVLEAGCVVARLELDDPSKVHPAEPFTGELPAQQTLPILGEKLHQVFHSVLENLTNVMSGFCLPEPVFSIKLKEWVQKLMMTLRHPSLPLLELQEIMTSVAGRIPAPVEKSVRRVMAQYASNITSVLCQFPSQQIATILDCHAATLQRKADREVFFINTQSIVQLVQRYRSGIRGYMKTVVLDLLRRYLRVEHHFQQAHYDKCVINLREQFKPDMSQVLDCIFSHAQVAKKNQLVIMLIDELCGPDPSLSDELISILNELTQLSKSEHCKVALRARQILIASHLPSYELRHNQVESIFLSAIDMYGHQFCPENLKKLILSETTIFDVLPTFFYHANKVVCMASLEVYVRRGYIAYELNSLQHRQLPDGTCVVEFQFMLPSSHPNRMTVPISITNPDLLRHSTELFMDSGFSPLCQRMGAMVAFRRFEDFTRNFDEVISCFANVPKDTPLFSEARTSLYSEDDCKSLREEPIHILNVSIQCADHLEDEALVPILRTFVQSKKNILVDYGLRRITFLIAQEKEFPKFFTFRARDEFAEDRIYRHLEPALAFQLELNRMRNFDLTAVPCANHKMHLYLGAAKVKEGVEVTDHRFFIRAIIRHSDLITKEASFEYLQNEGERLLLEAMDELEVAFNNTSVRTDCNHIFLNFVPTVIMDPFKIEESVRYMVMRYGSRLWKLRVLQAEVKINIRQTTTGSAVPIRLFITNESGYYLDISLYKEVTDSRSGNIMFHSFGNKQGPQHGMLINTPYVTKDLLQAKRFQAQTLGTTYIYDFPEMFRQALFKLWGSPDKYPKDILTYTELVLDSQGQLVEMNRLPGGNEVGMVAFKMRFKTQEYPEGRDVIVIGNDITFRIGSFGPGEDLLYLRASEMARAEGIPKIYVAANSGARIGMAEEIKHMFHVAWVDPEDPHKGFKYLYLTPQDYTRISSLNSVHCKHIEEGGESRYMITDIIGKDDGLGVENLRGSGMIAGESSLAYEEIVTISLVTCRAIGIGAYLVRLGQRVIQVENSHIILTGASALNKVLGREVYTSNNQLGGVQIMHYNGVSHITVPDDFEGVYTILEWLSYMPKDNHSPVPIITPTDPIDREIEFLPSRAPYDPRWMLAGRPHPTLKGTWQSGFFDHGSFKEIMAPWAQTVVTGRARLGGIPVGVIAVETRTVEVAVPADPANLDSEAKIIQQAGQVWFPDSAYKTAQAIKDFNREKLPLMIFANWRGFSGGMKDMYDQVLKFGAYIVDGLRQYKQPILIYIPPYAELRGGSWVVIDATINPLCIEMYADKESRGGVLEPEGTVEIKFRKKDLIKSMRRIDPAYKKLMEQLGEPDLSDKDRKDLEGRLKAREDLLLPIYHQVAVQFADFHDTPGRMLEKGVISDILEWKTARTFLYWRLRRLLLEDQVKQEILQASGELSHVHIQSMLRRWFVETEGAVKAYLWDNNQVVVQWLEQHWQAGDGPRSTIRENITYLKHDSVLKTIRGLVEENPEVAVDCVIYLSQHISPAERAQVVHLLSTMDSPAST

How the values were obtained:
[1] = molecular target: recombinant human ACC1 (rhACC1) (Homo sapiens, UniProt Q13085, DEL44-44); test: recombinant hACC1 Transcreener ADP detection FP assay; settings: read-out: hACC1 IC50, 50 μM ATP, 30 μM acetyl-CoA
[2] = molecular target: recombinant human ACC2 (rhACC2) (Homo sapiens, UniProt O00763, V2141I); test: recombinant hACC2 Transcreener ADP detection FP assay; settings: read-out: hACC2 IC50, 50 μM ATP, 30 μM acetyl-CoA

## CC(C)(C)n1cc2c(n1)C(=O)CC1(CCN(C(=O)c3ccc4[nH]nc(C(N)=O)c4c3)CC1)C2
[1]
  pIC50: 8.42
[2]
  pIC50: 8.89

## CC(C)(C)n1cc2c(n1)C(=O)CC1(CCN(C(=O)c3ccc4c(C(N)=O)c[nH]c4c3)CC1)C2
[1]
  pIC50: 8.19
[2]
  pIC50: 8.89
